The results in this text go back to US20210145806A1, “Methods of Treating Brain Cancer and Related Diagnostic Methods” (Emory University, priority 2019, published 2021).

Experiment [1] has as its system SHH-activated MB cells (DAOY, UW228 and ONS-76). The experiment in a line: Soft agar colony formation assay (CFA). Conditions: p<0.01 compared to vehicle control (DMSO); unit not given.
For experiment [2], the system named is SHH activated MB cells (DAOY, UW228 and ONS-76). The experiment in a line: Proliferation of SHH activated human MB cells (mean/composite of all lines). Conditions: read-out: IC50, inhibition of proliferation.

On to `O=c1c(O)c(-c2ccc(O)c(O)c2)oc2cc(O)ccc12` [fisetin, 2-(3,4-dihydroxyphenyl)-3,7-dihydroxy-4H-chromen-4-one], for which the “concentration at which colony formation is inhibited” value in experiment [1] is recorded as at least 6.

With `CC(NC(=O)C(C#N)=Cc1cccc(Br)n1)c1ccccc1` (centres unmarked) [WP1066, 3-(6-bromopyridin-2-yl)-2-cyano-N-(1-phenylethyl)acrylamide], in experiment [2], the IC50 turned out to be 1800 nM.
